Target: canine TRPM8 (Canis lupus familiaris, UniProt Q1A7N1)
Experiment: In Vitro Canine TRPM8 Functional Assay (Ca2+ fluorescence, icilin activation)
Type: cell-based
Conditions: for IC50: HEK293 cells stably expressing canine TRPM8, icilin activation, Ca2+ fluorescence; for % Inh @ 0.2 μM: 0.2 μM compound; for % Inh @ 0.2 μM / % Inh @ 0.5 μM: canine TRPM8 HEK293, icilin; for % Inh @ 0.5 μM: 0.5 μM compound
Method: The functional activity of compounds of the formula (I) was determined by measuring changes in intracellular calcium concentration using a Ca^2+-sensitive fluorescent dye. The changes in fluorescent signal were monitored by a fluorescence plate reader, either a FLIPR™ (Molecular Devices) or FDSS (Hamamatsu). Increases in intracellular Ca^2+ concentration were readily detected upon activation with icilin.
HEK293 cells stably expressing canine TRPM8 were routinely grown as monolayers in Dulbecco's minimum essential medium supplemented with 10% FBS, 2 mM L-glutamine, 100 units/mL penicillin, 100 ug/mL streptomycin and 400 μg/mL G418. Cells were maintained in 5% CO2 at 37° C. At 24 hrs prior to assay, cells were seeded in black wall, clear-base poly-D-lysine coated 384-well plates (BD Biosciences, NJ, USA) at a density of 5,000 cells per well in culture medium and grown overnight in 5% CO2 at 37° C. On assay day, growth media was removed and cells were loaded with Calcium 3 Dye (Molecular Devices) for 35 min at 37° C., under 5% CO2 and then for 25 min at room temperature and atmosphere. Subsequently, cells were tested for agonist-induced increases in intracellular Ca^2+ levels using FLIPR™ or FDSS. Cells were challenged with compounds of the formula (I) (at varying concentrations) and intracellular Ca^2+ was measured for 5 min prior to the addition of icilin to all wells to achieve a final concentration that produces approximately an 80% maximal response. EC50 or IC50 values for compounds of the present invention were determined from eight-point dose-response studies and represent the concentration of compound required to elicit or inhibit 50% of the maximal response, respectively.
Maximal fluorescence intensity (FI) achieved upon addition of icilin was exported from the FLIPR or FDSS software and further analyzed using GraphPad Prism 3.02 (Graph Pad Software Inc., CA, U.S.A.). Basal FI was subtracted prior to normalizing data to percent of maximal response. Curves were generated using the average of quadruplicate wells for each data point, were analyzed using nonlinear regression of either sigmoidal dose response or sigmoidal dose response (variable slope).

Sequences of proteins named here, by UniProt entry; tags and fusion partners are left off. Residues count along the entry.
UniProt Q1A7N1, 1-1104: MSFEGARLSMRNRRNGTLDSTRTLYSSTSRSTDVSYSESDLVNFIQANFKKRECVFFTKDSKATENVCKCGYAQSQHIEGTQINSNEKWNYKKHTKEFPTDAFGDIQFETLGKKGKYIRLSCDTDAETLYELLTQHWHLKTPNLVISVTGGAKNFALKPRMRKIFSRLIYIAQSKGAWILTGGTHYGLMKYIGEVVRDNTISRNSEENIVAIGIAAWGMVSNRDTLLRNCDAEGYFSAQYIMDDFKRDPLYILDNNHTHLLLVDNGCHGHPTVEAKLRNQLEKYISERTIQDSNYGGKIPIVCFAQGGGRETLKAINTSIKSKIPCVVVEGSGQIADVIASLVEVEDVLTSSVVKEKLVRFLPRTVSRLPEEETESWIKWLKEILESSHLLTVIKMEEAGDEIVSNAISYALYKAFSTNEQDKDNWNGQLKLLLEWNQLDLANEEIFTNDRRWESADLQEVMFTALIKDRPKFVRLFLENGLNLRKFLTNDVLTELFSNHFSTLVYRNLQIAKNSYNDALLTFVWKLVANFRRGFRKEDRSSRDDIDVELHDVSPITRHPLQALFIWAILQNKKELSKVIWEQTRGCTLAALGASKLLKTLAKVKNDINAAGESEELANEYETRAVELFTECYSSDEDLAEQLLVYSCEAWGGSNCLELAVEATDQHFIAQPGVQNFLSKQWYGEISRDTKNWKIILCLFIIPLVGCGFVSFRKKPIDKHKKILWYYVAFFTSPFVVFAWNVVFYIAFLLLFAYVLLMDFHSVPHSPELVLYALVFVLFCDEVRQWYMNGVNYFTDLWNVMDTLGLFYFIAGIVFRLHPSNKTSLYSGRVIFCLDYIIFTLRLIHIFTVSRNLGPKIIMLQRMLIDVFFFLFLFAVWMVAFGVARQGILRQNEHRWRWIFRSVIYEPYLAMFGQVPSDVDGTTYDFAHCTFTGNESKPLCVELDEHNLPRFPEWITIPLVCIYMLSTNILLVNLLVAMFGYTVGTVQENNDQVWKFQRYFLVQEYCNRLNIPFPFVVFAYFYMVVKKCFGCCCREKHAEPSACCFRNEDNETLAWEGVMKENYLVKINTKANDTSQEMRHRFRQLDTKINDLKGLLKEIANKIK

IC50 [µM] | % Inh @ 0.2 μM [%] | % Inh @ 0.5 μM [%] | Structure (SMILES)
0.0861 |  |  | O=C([C@H](Nc1ccccc1F)c1ccc(Br)cc1)N1[C@H](CO)CC[C@@H]1c1ccccc1 (single isomer, unassigned)
0.136 |  |  | O=C([C@@H](Nc1ccccc1F)c1ccc(Br)cc1)N1[C@H](CO)CC[C@@H]1c1ccccc1 (single isomer, unassigned)
0.0214 | 95 |  | O=C(C(Cc1ccccc1F)c1ccc(C(F)(F)F)cc1)N1CCC[C@H]1c1ccccc1F (stereo partly drawn)
0.011 | 92 |  | O=C(C(Cc1c(F)cccc1F)c1ccc(C(F)(F)F)cc1)N1CCC[C@H]1c1ccccc1F (stereo partly drawn)
0.334 |  | 88 | COc1ccccc1C1CCCN1C(=O)C(CNc1ccccc1F)c1ccc(C(F)(F)F)cc1 (stereo not drawn)
0.206 |  | 96 | COc1ccccc1C1CCCN1C(=O)C(NCc1ccccc1)c1ccc(C(F)(F)F)cc1 (stereo not drawn)
0.1 |  | 100.88 | N#Cc1ccc(C(Nc2ccccc2)C(=O)N2CCCC2c2ccccc2Cl)cc1 (stereo not drawn)
